Values quoted from earlier work in patent US20230114360A1, “Sublingual Delivery for Mitigation of Side Effects Associated with Zicronapine” (priority 2014, published 2023).
Where two headings read alike, the source gives them in different places.

For `CN(C)C(=N)N=C(N)N` [Metformin, dimethylbiguanide], the “metabolites or conjugates identified” value (absence of liver metabolism) is listed as “No metabolites or conjugates”, the therapeutic plasma level (after a meal) is listed as “one to two” and the “time until gastrointestinal absorption is apparently complete” value (after ingestion) is listed as “six”. For the same compound, the therapeutic plasma level (fasting state) was “one-half to one”.
